The text below walks through data of patent publication US20230174526A1, “BENZOTHIAZOLYL BIARYL COMPOUND, AND PREPARATION METHOD AND USE” (SHANGHAI RINGENE BIOPHARMA CO., LTD., priority 2020, published 2023).

By UniProt entry, the sequences of proteins in these tests, tags left out. Residues count along the entry.
UniProt P01116, 1-188 isoform 2 G12C: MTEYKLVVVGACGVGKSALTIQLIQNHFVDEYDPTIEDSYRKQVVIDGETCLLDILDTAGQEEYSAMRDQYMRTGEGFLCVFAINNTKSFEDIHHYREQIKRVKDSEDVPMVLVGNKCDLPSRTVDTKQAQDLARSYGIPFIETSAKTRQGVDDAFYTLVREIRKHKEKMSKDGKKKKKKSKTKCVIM

One series has as its target KRAS^G12C/SOS1 (Homo sapiens, UniProt P01116, G12C). In words: KRAS^G12C/SOS1 protein-protein interaction Binding assay (CisBio kit). The conditions noted are these: read-out: IC50/nM, class symbols.
The subject of series [1] is MiaPaca-2 cells (pancreatic cancer). Description: Proliferation test method 1 (2D, MTT), MiaPaca-2. The conditions noted are these: read-out: IC50/nM proliferation inhibitory activity on MiaPaca-2 cells, 5-7 days.
Series [2] in a line: Metabolic stability assay, rat liver microsomes. Conditions: rat liver microsomes 0.5 mg/mL, 1 µM compound. The protocol:
(§1) Metabolic stability assay: A warm incubation for metabolic stability was performed with a system of 150 µL of liver microsomes (final concentration 0.5 mg/mL) containing NADPH (final concentration 1 mM), 1 µM of the test compound and positive control midazolam or negative control atenolol, and the reaction was terminated with acetonitrile containing tinidazole at 0 min, 5 min, 10 min and 30 min, respectively. The reaction was vortexed for 10 min and centrifuged at 15000 rmp for 10 min, and 50 µL of supernatant was taken into the 96-well plate for sampling. The metabolic stability of the compound was calculated by measuring the relative reduction of the drugs.

Series [3] can be described thus: Metabolic stability assay, mouse liver microsomes. The conditions noted are these: mouse liver microsomes 0.5 mg/mL, 1 µM compound. The protocol: as §1
A short description of series [4]: Metabolic stability assay, monkey liver microsomes. Conditions: monkey liver microsomes 0.5 mg/mL, 1 µM compound. The protocol:
as §1

A short description of series [5]: Metabolic stability assay, human liver microsomes. Conditions: human liver microsomes 0.5 mg/mL, 1 µM compound. The protocol:
as §1

Series [6] can be described thus: In vivo pharmacokinetic parameter testing in mice. The conditions noted are these: iv(1 mg/kg).

On to `C=CC(=O)N1CCN(c2ncnc3c(F)c(-c4ccc(F)c5sc(N)nc45)c(Cl)cc23)CC1` [Example 31, 7-(2-Amino-7-Fluorobenzo [d] Thiazol-4-yl)-6-Chloro-2-(3-(Dimethylamino)Azetidine-1-yl) -8-Fluoro-4-(4-(2-Fluoroacryloyl)Piperazin-1-yl)Quinolin-3-Cyano], for which the IC50 on KRAS^G12C/SOS1 was 50 to 200 nM. Also, in series [1], the IC50 worked out at 2.6 nM. In addition, in series [2], the “Liver microsomal stability (T½ /min) Rat” value came to 31 min. Also, in series [3], the “Liver microsomal stability (T½ /min) Mouse” value is 32 min. The “Liver microsomal stability (T½ /min) monkey” value in series [4] is 31 min. Further, in series [5], the “Liver microsomal stability (T½ /min) human” value was determined as 44 min. Also, in series [6], the “Below the curve and AUC0-t” value is 1.62 ± 0.188 µM·h; the “Clearance rate Cl” value was determined as 21.16 ± 2.36 mL/min/kg; the “Half-life T½” value was 36 min.
